These results are taken from US11555012B2 (Nimbus Artemis, Inc., priority 2018, dated 2023).

Chains of the proteins cited; added tags and fusions are not shown. A line that says so, or that is headed by a name, gives the form on record, which may keep a tag or linker.
UniProt P53396, other isoform, or with tags, fused parts or gaps isoform P53396-2: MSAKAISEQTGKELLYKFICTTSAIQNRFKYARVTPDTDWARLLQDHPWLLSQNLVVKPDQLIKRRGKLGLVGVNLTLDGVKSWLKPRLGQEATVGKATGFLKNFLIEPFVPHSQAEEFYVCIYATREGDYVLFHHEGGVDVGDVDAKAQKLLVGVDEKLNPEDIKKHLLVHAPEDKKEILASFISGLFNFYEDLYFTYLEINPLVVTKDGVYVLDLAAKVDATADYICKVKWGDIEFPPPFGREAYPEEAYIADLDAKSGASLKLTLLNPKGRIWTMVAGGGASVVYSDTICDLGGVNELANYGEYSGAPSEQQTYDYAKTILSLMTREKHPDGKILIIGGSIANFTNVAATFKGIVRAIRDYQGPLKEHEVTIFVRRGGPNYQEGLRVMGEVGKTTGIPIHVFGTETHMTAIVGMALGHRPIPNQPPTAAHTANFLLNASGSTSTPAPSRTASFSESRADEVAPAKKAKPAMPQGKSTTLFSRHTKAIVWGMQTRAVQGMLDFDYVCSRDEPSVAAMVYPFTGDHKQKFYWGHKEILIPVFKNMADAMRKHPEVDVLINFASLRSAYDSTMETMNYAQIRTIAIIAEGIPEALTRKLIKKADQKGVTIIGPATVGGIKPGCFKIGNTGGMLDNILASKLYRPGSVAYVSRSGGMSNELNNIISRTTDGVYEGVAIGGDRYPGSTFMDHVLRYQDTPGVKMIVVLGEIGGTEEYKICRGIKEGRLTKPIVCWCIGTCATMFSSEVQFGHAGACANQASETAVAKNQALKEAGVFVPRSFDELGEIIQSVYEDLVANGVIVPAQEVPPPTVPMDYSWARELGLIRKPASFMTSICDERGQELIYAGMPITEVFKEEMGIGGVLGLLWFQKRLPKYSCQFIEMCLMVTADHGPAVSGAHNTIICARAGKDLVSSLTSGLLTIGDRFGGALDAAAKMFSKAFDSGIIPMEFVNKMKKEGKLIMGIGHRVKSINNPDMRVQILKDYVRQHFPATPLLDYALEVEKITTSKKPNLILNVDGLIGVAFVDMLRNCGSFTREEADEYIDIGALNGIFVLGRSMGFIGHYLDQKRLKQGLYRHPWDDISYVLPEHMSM
UniProt P53396, whole entry, species assumed: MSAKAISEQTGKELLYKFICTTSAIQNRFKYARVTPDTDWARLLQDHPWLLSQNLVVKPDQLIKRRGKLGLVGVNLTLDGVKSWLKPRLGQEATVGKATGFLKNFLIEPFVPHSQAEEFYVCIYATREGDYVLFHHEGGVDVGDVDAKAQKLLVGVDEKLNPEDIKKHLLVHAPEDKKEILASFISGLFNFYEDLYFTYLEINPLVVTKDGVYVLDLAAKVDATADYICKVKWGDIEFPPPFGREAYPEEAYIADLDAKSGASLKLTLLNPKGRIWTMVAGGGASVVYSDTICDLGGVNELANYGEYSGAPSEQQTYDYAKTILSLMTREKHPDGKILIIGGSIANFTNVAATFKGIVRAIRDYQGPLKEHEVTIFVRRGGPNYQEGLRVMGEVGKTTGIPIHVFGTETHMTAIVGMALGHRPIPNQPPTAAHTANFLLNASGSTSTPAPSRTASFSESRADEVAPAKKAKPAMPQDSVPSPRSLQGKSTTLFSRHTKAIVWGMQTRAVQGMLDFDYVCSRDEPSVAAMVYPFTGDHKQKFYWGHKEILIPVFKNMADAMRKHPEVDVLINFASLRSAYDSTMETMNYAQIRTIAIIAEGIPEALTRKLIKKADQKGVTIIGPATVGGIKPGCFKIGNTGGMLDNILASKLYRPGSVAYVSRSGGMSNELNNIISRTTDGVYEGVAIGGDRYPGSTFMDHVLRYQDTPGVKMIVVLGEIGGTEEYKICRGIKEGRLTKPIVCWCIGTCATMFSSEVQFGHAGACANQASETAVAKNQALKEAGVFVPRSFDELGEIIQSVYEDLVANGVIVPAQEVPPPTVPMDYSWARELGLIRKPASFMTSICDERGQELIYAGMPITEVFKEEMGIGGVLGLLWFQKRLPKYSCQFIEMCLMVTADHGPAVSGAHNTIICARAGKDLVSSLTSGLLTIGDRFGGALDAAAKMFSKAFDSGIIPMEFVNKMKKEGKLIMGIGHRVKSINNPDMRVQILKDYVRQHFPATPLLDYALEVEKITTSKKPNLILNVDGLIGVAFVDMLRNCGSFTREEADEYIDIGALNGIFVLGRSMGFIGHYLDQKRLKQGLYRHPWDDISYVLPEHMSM

In assay [1] the target is T1, ACL (Homo sapiens (Human), UniProt P53396). Put plainly: ADP-Glo Assay. To be noted: read-out: ACL-ADP-Glo (IC50).
The target in assay [2] is T1, ACL. Kind of assay: ACLY-MDH Coupled Assay. As to conditions: read-out: ACL-MDH Coupled Assay (IC50); 8 nM ACL, 60 μM CoA Na2, 85 μM Citrate, 250 μM ATP, 250 μM NADH.

With `CN(C)C(=O)c1cc(Cl)c(O)c(S(=O)(=O)Nc2cc(-c3ccccc3)c(F)cc2F)c1` [I-83, 3-chloro-5-[(2,4-difluoro-5-phenylphenyl)sulfamoyl]-4-hydroxy-N,N-dimethylbenzamide], the IC50 on ACL [1] and on ACL [2] was under 50 nM in each case.
